Screening data as filed in PubChem BioAssay.
A selection: hits, their analogues and other compounds. The true share with any hit is near 3.7%.
Nrf2 activator = activators of Nrf2 (ARE) signaling; AREc32 ARE-luciferase reporter (MCF7-derived line), luminescence, 24 h; 410,000 tested, 0.31% active; AID 624171; Potency, µM (doses to about 46.1 µM), inactives show at the top dose activation, actives largely listed as activators; note: potency is the fitted concentration of half-maximal effect; % of control where 0% means no effect; nearly all actives have a fitted effect of over 65% in size
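Steps: seed AREc32_Fluc cells (1000/well, 5% FBS OPTI-MEM); incubate overnight at 37 deg C; add 23 nL compound; incubate 24 hr; add Steady-Glo; hold 30 min RT; read luminescence.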
miR-21 reporter = miR-21 reporter, rising signal; HeLa miR-21 FLuc reporter, luciferase, 48 h; Potency, µM (titrated, usually from 38.3 µM), without a hit: top-dose reporter change, positive = more light; AID 2288; 340,000 tested, under 10 active; active = well fitted rising curve with a large enough effect; inconclusive = small, poorly fitted or top-dose-only effect; inactive = no such curve, though single readings can be large or run the other way;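 further: % of control where 0% means no effect; miR-21 action dims this reporter so a rising signal means less miR-21 action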
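Luminescence from a firefly luciferase reporter carrying a miR-21 binding site downstream, stably expressed under a CMV promoter in HeLa cells that make miR-21 endogenously, reports miRNA modulation after 48 h compound exposure up to approximately 40uM final.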
ClpP mod = qHTS Assay for Activators of ClpP; ATP-dependent Clp protease proteolytic subunit (Bacillus subtilis (strain 168)), P80244; 340,000 tested, 1.9% active; purified B. subtilis ClpP, FRET peptide cleavage, 20 min; Potency, µM (series often up to 57.5 µM), inactives show at the top dose activity change, negative = active; active = well fitted falling curve with a large enough effect; inconclusive = small, poorly fitted or top-dose-only effect; inactive = no such curve, though single readings can be large or run the other way; note: potency is the fitted concentration of half-maximal effect; the source files actives as falling curves though it sought activators and does not explain the sign; nearly all actives have a fitted effect of over 65% in size
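FRET quenching reversal measured ClpP activation: 10 microg/mL B. subtilis ClpP at pH 8 with the FRET-FV decapeptide, read at 430 nm after 320 nm excitation. The 20-min minus 0-min signal was scaled between DMSO/no-enzyme wells and ADEP (5.8 microM final).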
Nrf2 inh = Nrf2 pathway inhibition; A549 ARE-Fluc reporter, luciferase luminescence, 18-24 h; Potency, µM (doses to about 46 µM), without a hit: top-dose activity change, negative = inhibition, most hits filed as inhibitors; 360,000 tested, 2.1% active; note: potency is the fitted concentration of half-maximal effect; % is set by controls: 0 for no effect and ±100 for the full control effect; nearly all actives have a fitted effect of over 60% in size
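Reporter: ARE-Fluc in A549. Exposure: 18-24 h, 37 °C, 5% CO2, 5% FBS OPTI-MEM. Readouts: fluorescent cytotoxicity (CellTiter-Fluor), then luminescent Nrf2 signal after BugLite.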
IL-2 act = activators of IL-2. IL-2 activation reporter assay, cell-based qHTS; stimulated with anti-CD3/CD4/CD28 beads; in transgenic mouse T cells. activation, % (series mostly up to about 46 µM). 360,000 tested, 0.065% active; in the data active = activation above about 50%; inconclusive = mostly about 30% to 49%; note: 0% is about no effect
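Unstimulated transgenic mouse T cells, 750 per well, received compound and, after 60 minutes, anti-CD3/anti-CD4 bead plus anti-CD28 stimulation. EGFP and DsRed were quantified after 18 hours.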
A549 viability = A549 cytotoxicity, counter-screen for Nrf2 inhibitors | Potency, µM (series often up to 46 µM), for inactives: top-dose activity change, negative = cytotoxicity, most hits filed as inhibitors | A549 ARE-Fluc cells, CellTiter-Fluor viability, 18-24 h | 390,000 tested, 0.16% active | AID 504648; note: potency is the fitted concentration of half-maximal effect; % is set by controls: 0 for no effect and ±100 for the full control effect
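Cytotoxicity counterscreen: CellTiter-Fluor fluorescence was measured in A549 ARE_Fluc cells after 18-24 h of compound exposure in a concentration series. The subsequent BugLite luminescent read reports ARE-luciferase activity.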
Starred values were filed as active, the others as inactive; ? = inconclusive; . = no result given. Unless noted, calls come from the whole dose curve; as a rule, active = well fitted curve in the direction sought with a large enough effect; inconclusive = small, poorly fitted or top-dose-only effect, or another doubt; inactive = no such curve, though single readings can be large; an effect the other way counts as inactive or inconclusive.

SMILES	Nrf2 activator	miR-21 reporter	ClpP mod	Nrf2 inh	IL-2 act	A549 viability
Cc1ccc([N+](=O)[O-])cc1NC(=O)c1ccccc1	7.9µM*	0%	.	1%	-3	-2%
Cc1ccc(C(C)C)cc1NC(=O)Nc1ccc([N+](=O)[O-])cc1	-1%	?	1%	21µM*	-4	?
Cc1ccc(SCc2ccc(C(=O)Nc3cc([N+](=O)[O-])ccc3C)cc2)cc1	0%	-12%	2%	15µM*	0	-9%
Cc1cc(O)c(C(C)C)cc1NC(=O)Nc1ccc([N+](=O)[O-])cc1	4%	.	.	?	0	-2%
Cc1noc(C)c1C(=O)N1CCN(c2ccc(OCc3ccccc3)cc2)CC1	0%	0%	-3%	21µM*	0	-2%
CCN(CC)c1ccc(NC(=O)c2cc(S(=O)(=O)N3CCc4ccccc43)cn2C)c(C)c1	0%	-5%	-11%	-5%	.	18%
Cc1nnc(-c2cccc(Br)c2)c2cn(-c3ccc(Br)cc3)nc12	0%	1%	1%	15µM*	0	-19%
CC(C)c1ccc(Nc2cc(C(=O)NCCc3ccccc3)c3ccccc3n2)cc1	3%	-1%	116%	?	.	11%
CC(C)Oc1ccc(C(=O)N(Cc2ccco2)c2ccccn2)cc1	4%	-31%	1%	?	.	-1%
Cc1cccc(N2C(=O)CC(Sc3nc(C)cc(C)n3)C2=O)c1 (stereo not drawn)	0%	-6%	5%	-4%	1	-5%
Cc1cccc(N2C(=O)CC(Sc3nc(-c4ccccc4)c4cc(Cl)ccc4n3)C2=O)c1 (stereo not drawn)	0%	-5%	28µM*	.	0	0%
CCCCn1c(CNC(=O)C23CC4CC(CC(C4)C2)C3)nnc1SCC(=O)Nc1ccc(F)cc1	0%	9%	0%	-9%	.	-1%

Compound profiles (already shown). Values in the order: Nrf2 activator | miR-21 reporter | ClpP mod | Nrf2 inh | IL-2 act | A549 viability
Cc1ccc(C(C)C)cc1NC(=O)Nc1ccc([N+](=O)[O-])cc1 across the screens: -1% | ? | 1% | 21µM* | -4 | ?
Cc1cccc(N2C(=O)CC(Sc3nc(C)cc(C)n3)C2=O)c1 (stereo not drawn) across the screens: 0% | -6% | 5% | -4% | 1 | -5%
Cc1nnc(-c2cccc(Br)c2)c2cn(-c3ccc(Br)cc3)nc12 across the screens: 0% | 1% | 1% | 15µM* | 0 | -19%
CCCCn1c(CNC(=O)C23CC4CC(CC(C4)C2)C3)nnc1SCC(=O)Nc1ccc(F)cc1 across the screens: 0% | 9% | 0% | -9% | . | -1%
Cc1cccc(N2C(=O)CC(Sc3nc(-c4ccccc4)c4cc(Cl)ccc4n3)C2=O)c1 (stereo not drawn) across the screens: 0% | -5% | 28µM* | . | 0 | 0%

(listing goes on)
SMILES	Nrf2 activator	miR-21 reporter	ClpP mod	Nrf2 inh	IL-2 act	A549 viability
COc1ccc(C)c2sc(N(Cc3cccnc3)C(=O)CCc3ccccc3)nc12	1%	0%	-4%	.	.	-4%
CCCc1cc(=O)[nH]c(SCC(=O)c2cc(C)n(C)c2C)n1	-1%	-10%	-3%	-13%	1	-12%
CCCc1cc(=O)[nH]c(SCC(=O)c2cc(C)n(C3CC3)c2C)n1	0%	-9%	18µM*	.	1	-4%
COC(C(=O)C(O)C(C)O)C1Cc2cc3cc(OC4CC(OC5CC(O)C(O)C(C)O5)C(O)C(C)O4)c(C)c(O)c3c(O)c2C(=O)C1OC1CC(OC2CC(OC3CC(C)(O)C(O)C(C)O3)C(O)C(C)O2)C(O)C(C)O1 (stereo not drawn)	.	.	-1%	.	.	.
O=C(CC1SC(=O)N(c2ccccc2)C1=O)Nc1ccc(Br)cc1 (stereo not drawn)	6%	-29%	0%	?	2	-1%
CN(C1=NC(=O)C(CC(=O)Nc2ccc(Br)cc2)S1)c1ccc(O)cc1 (stereo not drawn)	0%	4%	10%	23µM*	-2	-14%
O=S(=O)(C/C(=C/CO)S(=O)(=O)c1ccccc1)c1ccccc1	?	?	1%	?	-3	16µM*
CCn1c(=O)cc(SCC(=O)NCCc2cccc(C)c2)c2ccccc21	6%	-1%	-20%	?	.	4%
OCC1OC(n2cnc3c(NCc4ccccc4O)ncnc32)C(O)C1O (stereo not drawn)	?	.	-3%	18µM*	-8	-15%
CN(C)c1ncnc2c1ccn2C1OC(CO)C(O)C1O (stereo not drawn)	-1%	.	-1%	?	-6	-8%
OC[C@H]1O[C@@H](n2cnc3c(Nc4ccccc4)ncnc32)[C@H](O)[C@@H]1O	5%	-99%	1%	?	0	0%
OCC1OC(n2ccc3c(NO)ncnc32)C(O)C1O (stereo not drawn)	-2%	.	-13%	?	-1	2.1µM*
COc1cc(NC(=O)Cn2nc(-c3ccc(F)cc3)ccc2=O)ccc1-n1cnnn1	2%	-3%	-2%	26µM*	-2	?
CC1=C(C(=O)OCCOC(C)C)C(c2cccnc2)C2=C(CCCC2=O)N1 (stereo not drawn)	-1%	3%	?	17%	0	0%
CC1=C(C(=O)OC(C)C)C(c2ccc(N(C)C)cc2)C2=C(CC(C)(C)CC2=O)N1 (stereo not drawn)	0%	-2%	5%	?	0	-2%
CC1=C(C(=O)OC(C)C)C(c2cccnc2)C2=C(CC(C)(C)CC2=O)N1 (stereo not drawn)	-1%	-4%	28µM*	12%	0	14%
COCCOC(=O)C1=C(C)NC2=C(C(=O)CC(C)(C)C2)C1c1cccnc1 (stereo not drawn)	0%	-5%	28µM*	0%	0	1%
CC(OC(=O)c1ccc(S(=O)(=O)NCc2ccco2)cc1)C(=O)Nc1ccc(Cl)cn1 (stereo not drawn)	4%	-1%	-1%	-17%	0	-7%
CC(OC(=O)Cc1ccsc1)C(=O)Nc1ccc(Cl)cn1 (stereo not drawn)	0%	.	25µM*	16%	-5	1%
CNc1ccccc1C(=O)OC(C)C(=O)Nc1ccc(Cl)cn1 (stereo not drawn)	0%	15%	25µM*	-74%	-2	?
CC(OC(=O)c1ccccc1NCc1ccco1)C(=O)Nc1ncc(Cl)cc1Cl (stereo not drawn)	10%	-2%	32µM*	.	-1	17%
CCOc1ncccc1C(=O)OC(C)C(=O)Nc1ccc(Cl)cn1 (stereo not drawn)	12%	.	-2%	10%	-1	-4%
Cc1ccc(NC(=O)N2CCc3c([nH]c4ccccc34)C2c2ccccc2F)c(Cl)c1 (stereo not drawn)	5%	22%	-3%	?	.	2%
COC(=O)c1cc2sc(Cl)cc2n1CC(=O)Nc1cc(C)cc(C)c1	0%	-8%	-3%	-10%	.	1%
Cc1ccc2c(CN3CCN(S(=O)(=O)c4ccccc4C(F)(F)F)CC3)cc(=O)oc2c1C	2%	.	-11%	5.2µM*	-1	2%
COCCCNC(=O)CCCN1C(=O)CCn2nc(-c3cn(C)c4ccccc34)cc21	1%	-3%	-22%	.	.	-8%
COc1cccc(NC(CNS(=O)(=O)c2ccc(Cl)cc2)c2ccccc2)c1 (stereo not drawn)	-3%	?	1%	?	.	?
